Assay results as given in patent US20260098268A1, “COMPOSITIONS AND METHODS TO TREAT ALZHEIMER'S DISEASE AND OTHER BRAIN DISEASES” (priority 2022, published 2026).

Sequences of proteins named here, by UniProt entry; tags and fusion partners are left off.
UniProt P47746, whole entry: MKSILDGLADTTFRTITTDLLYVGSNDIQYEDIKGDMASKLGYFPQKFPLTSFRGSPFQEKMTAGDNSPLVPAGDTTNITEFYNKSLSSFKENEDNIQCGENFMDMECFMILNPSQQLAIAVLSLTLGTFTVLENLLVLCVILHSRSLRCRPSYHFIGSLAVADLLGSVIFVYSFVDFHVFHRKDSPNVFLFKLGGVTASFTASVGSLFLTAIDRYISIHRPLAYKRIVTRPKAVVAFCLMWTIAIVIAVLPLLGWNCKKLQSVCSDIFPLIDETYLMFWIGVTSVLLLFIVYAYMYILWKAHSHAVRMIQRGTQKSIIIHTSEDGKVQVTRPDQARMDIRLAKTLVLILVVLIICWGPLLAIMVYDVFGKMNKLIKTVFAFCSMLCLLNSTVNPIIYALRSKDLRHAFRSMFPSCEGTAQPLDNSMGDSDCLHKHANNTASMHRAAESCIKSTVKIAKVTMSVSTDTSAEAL

Target: CB1R (Mus musculus, UniProt P47746)
Conditions: WT mice; RIM 2 μM, WIN 5 μM

- effect on WIN-induced suppression of IPSCs: blocked
Compound: Cc1c(C(=O)NN2CCCCC2)nn(-c2ccc(Cl)cc2Cl)c1-c1ccc(Cl)cc1 [RIM, Rimonabant]
